In PMC6533151 (Neuron, 2019):
Structures can show the parent of a compound that is named as a salt.

System: release of endogenous NE in the LC (GRABNE1m fluorescence)
Format: cell-based, mouse
Details: desipramine 10 μM

CNCCCN1c2ccccc2CCc2ccccc21 [desipramine, Desipramine hydrochloride]
effect on stimulation-induced fluorescence response (20 pulses at 20 Hz, 4-AP 100 μM, Cd2+ 100 μM, yohimbine 20 μM): larger fluorescence responses
effect on decay kinetics of fluorescence signals: significantly slowed down the decay kinetics
